# scFv variants of Ab-14 (heavy chain) against a SARS-CoV-2 spike peptide

Source: Li et al. 2023 (doi:10.1038/s41467-023-39022-2), MIT Lincoln Laboratory and A-Alpha Bio; data file from the FLAb repository.

The target is the same throughout: PDVDLGDISGINAS, from the HR2 region of SARS-CoV-2 spike.

Parent scFv Ab-14: VH joined to VL by a (GGGGS)3 linker. Changes lie in the heavy chain CDRs alone.
VH: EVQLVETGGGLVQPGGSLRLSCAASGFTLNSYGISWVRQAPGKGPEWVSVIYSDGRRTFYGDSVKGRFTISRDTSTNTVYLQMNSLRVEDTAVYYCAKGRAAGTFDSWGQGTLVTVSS
VL: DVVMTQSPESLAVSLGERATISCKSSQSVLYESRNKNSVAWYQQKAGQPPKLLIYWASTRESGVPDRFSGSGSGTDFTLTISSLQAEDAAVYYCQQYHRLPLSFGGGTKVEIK

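The parent was found by panning a naive human phage display library on the peptide. Designed CDR sequences, proposed from the first random library and measured here. Group labels follow the data file (Ctrl: baseline library sampled from a position-specific scoring matrix, with some repeated check sequences; GPLM: also part of the Gaussian process libraries; HC: hill climbing; Gen: genetic algorithm; a sequence that several methods proposed may carry one label only). The assay is AlphaSeq: two haploid yeast populations carry antibody and antigen on their surface. Binding brings cells together so that they mate, and sequencing counts the barcode pairs among the diploids. A regression on co-assayed BCL2-family reference pairs converts the normalised counts of each replicate to an apparent Kd. Mating was done six times.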

Each variant is given by its three heavy chain CDRs, as the data file delimits them; those of the parent are GFTLNSYGIS, VIYSDGRRTFYGDSVK, GRAAGTFDS.
Numbers give log10(Kd / nM), so 0 is 1 nM and 3 is 1 µM. Smaller is tighter.
A pair that was not seen in that replicate is written "ND"; this usually means weak binding, but a binder can also be missed.

| CDR-H1 | CDR-H2 | CDR-H3 | group | log10 Kd, replicates | empty controls |
|---|---|---|---|---|---|
| KFTLDSYGIS | VIFSDGRRVFYGDSVK | GRAAGHFDK | Ctrl | ND / ND / ND / ND / ND / ND | 0/18 |
| GFDLNQYGIS | VIYSDGRRTFYGDSVK | GRGAGTFSS | Ctrl | ND / ND / ND / ND / ND / ND | 0/18 |
| GFTLNNYGIS | VIYSDGKRTFYGDSVK | GRAAGTFDS | Ctrl | 1.41 / 1.39 / 0.96 / 1.12 / 1.41 / 1.69 | 0/18 |
| GFTLNDYGIS | VIYSDGRRTQYGDSVK | GRAAGTFKS | Ctrl | ND / ND / ND / ND / ND / ND | 0/18 |
| GFTLNDYGIS | VIYSDGRRTFYGDSVK | GRAAGTFDL | Ctrl+GPLM_HC | 1.34 / 2.34 / 1.22 / 1.16 / 0.80 / 1.35; 0.43 / 1.38 / 1.11 / 0.28 / 1.26 / 0.24 | 2/36 (1.38) |
| GFTLNSYGIS | VIYSDGRRTFYGDSVK | GRAAWTFVS | Ctrl | ND / ND / ND / ND / ND / ND | 0/18 |
| GATLNQYGIS | VIYSDGRRTFYGDSVV | GRAASDFDS | Ctrl | ND / ND / ND / ND / ND / ND | 0/18 |
| GFQLNSYGIS | VIYSDGRRTFYGDSVK | VRAAGTFDS | Ctrl | ND / ND / ND / ND / ND / ND | 2/18 (1.74) |
| GFTPNSYGIS | VIYSDGRRTFYSDSVK | GRAAGSFDS | Ctrl | 2.51 / 1.85 / 0.75 / 0.59 / 1.53 / 0.72 | 1/18 (2.98) |
| GFTLNSYGIQ | VIYSDGRRTFYIDSVK | GQAAGTFDS | Ctrl | ND / ND / ND / ND / ND / ND | 0/18 |
| QFDLNSYGIS | VIYSDGIRTFYGNSVK | GAEAGTFDS | Ctrl | 2.46 / ND / 2.48 / 1.95 / 2.77 / ND | 0/18 |
| GFTLRSYGIS | VIYSDGRRTFYGDSVK | GRIAGTSVS | Ctrl | ND / ND / ND / ND / ND / ND | 0/18 |
| GFTLNDYGIS | VIYSDGRRTFYGDSVK | GRTAGTFDS | Ctrl+GPLM_Gen | 0.13 / 0.36 / 0.01 / -0.07 / 0.16 / 0.47; 0.34 / 0.68 / 0.64 / 0.39 / 0.43 / 0.59 | 0/36 |
| GFDLNSYGIS | VIYSDGRRTFYHDSVK | GMAAGTFDS | Ctrl | 0.11 / 0.25 / 0.66 / -0.34 / 0.70 / 0.46 | 0/18 |
| GFTLNEYGIS | VIYSDGRRTFYGDSVK | GRAAGTFEV | Ctrl | ND / 0.90 / ND / 2.30 / 1.10 / 0.89 | 0/18 |
| GFTLNSYGIS | VIYSDGRRTFYGDSVK | GFAAGTDDT | Ctrl | ND / ND / ND / ND / ND / ND | 0/18 |
| GDELNSYGIS | VIYSDGRRTFYQDSVK | GRAAGTFDS | Ctrl | ND / ND / ND / ND / ND / ND | 0/18 |
| GFTINSYGIS | VIYSDGMRTFYNDSVK | GRAAGIFDQ | Ctrl | ND / ND / ND / ND / ND / ND | 0/18 |
| GFDLNMYGIS | VGYSDGRRTFYLDSVK | GYAAGTFDS | Ctrl | ND / ND / 2.82 / ND / ND / ND | 0/18 |
| GITLNSYGIS | VIYSDGRRTFYGDSVE | GRAAGTFDS | Ctrl | ND / ND / ND / 2.74 / ND / ND | 1/18 (2.58) |
| GFTINSYGIS | VIYSDGRRTFYGDSVK | GEAAGTFDS | Ctrl | ND / 1.95 / ND / 2.27 / 1.87 / 3.31 | 0/18 |
| GFTLNAYGIS | VIYSDGRRTFYGDSVK | GRNAGTFDS | Ctrl | 1.32 / 1.61 / ND / ND / 2.19 / 1.87 | 0/18 |
| GFTLNLYGIS | VIYSDGRRTFYGDSVK | GREAGTFDS | Ctrl | ND / ND / ND / ND / 1.07 / ND | 0/18 |
| GFCLNSYGIS | VIYSDGRRTFYGDSVK | GLAAQTFDN | Ctrl | ND / ND / ND / ND / ND / ND | 0/18 |
| RFTLDSYGIS | VIYSDGFRTSYGDSVK | GRSAGTFDS | Ctrl | ND / 1.82 / ND / ND / ND / ND | 0/18 |
| GLNLESYGIS | VIYSDGRRTFYADSVK | GRAAGTFDS | Ctrl | ND / 0.85 / 1.46 / 0.56 / 1.18 / 0.94 | 0/18 |
| KFTLMSYGIS | VIYSDGRRTFYGDSVK | GREAGTFDS | Ctrl | ND / 2.28 / ND / ND / 1.39 / 1.40 | 0/18 |
| GFTLNKYGIS | VIYSDGRRTFYGDSVR | GRAAGTFDS | Ctrl | 1.74 / ND / ND / ND / ND / ND | 0/18 |
| GFELNEYGIS | VIYADGRPTFYEDSVK | GRAAWTFDS | Ctrl | ND / ND / ND / ND / ND / ND | 0/18 |
| GFTLGSYGIS | VIYSDGRRTFYGDEVK | GRNAVTFDS | Ctrl | ND / ND / ND / ND / ND / ND | 0/18 |
| GFTLNSYGIS | VIYSDGRRTAYGDNVK | GRQAGTFDS | Ctrl | 0.31 / 0.76 / 1.39 / 0.66 / 0.21 / 0.88 | 0/18 |

The first 5 entries again:

{"CDR-H1": "KFTLDSYGIS", "CDR-H2": "VIFSDGRRVFYGDSVK", "CDR-H3": "GRAAGHFDK", "group": "Ctrl", "log10 Kd, replicates": "ND / ND / ND / ND / ND / ND", "empty controls": "0/18"}
{"CDR-H1": "GFDLNQYGIS", "CDR-H2": "VIYSDGRRTFYGDSVK", "CDR-H3": "GRGAGTFSS", "group": "Ctrl", "log10 Kd, replicates": "ND / ND / ND / ND / ND / ND", "empty controls": "0/18"}
{"CDR-H1": "GFTLNNYGIS", "CDR-H2": "VIYSDGKRTFYGDSVK", "CDR-H3": "GRAAGTFDS", "group": "Ctrl", "log10 Kd, replicates": "1.41 / 1.39 / 0.96 / 1.12 / 1.41 / 1.69", "empty controls": "0/18"}
{"CDR-H1": "GFTLNDYGIS", "CDR-H2": "VIYSDGRRTQYGDSVK", "CDR-H3": "GRAAGTFKS", "group": "Ctrl", "log10 Kd, replicates": "ND / ND / ND / ND / ND / ND", "empty controls": "0/18"}
{"CDR-H1": "GFTLNDYGIS", "CDR-H2": "VIYSDGRRTFYGDSVK", "CDR-H3": "GRAAGTFDL", "group": "Ctrl+GPLM_HC", "log10 Kd, replicates": "1.34 / 2.34 / 1.22 / 1.16 / 0.80 / 1.35; 0.43 / 1.38 / 1.11 / 0.28 / 1.26 / 0.24", "empty controls": "2/36 (1.38)"}

The range of this assay differs from that of the first round, and the authors advise against merging the two.
Empty control strains, which show no peptide, gave a signal in 1% of pairings with all heavy chain designs; the median was 2.08 and 95% of these signals were weaker than 0.84. No background was subtracted. Also given: how often the same scFv was detected with the empty control strains, with their mean in brackets.
Of ten entries with the parent sequence, four were seen in most replicates (averages 0.34 to 2.37), three in one and three in none, so single entries are noisy.
Where one sequence has several entries in the source, the replicates are listed entry by entry, parted by semicolons.
The authors' rule: three or more of the six replicates give a measured affinity, fewer mean a poor binder.